Among the data in ChEMBL document CHEMBL4814076, “Discovery of a Potent and Selective Covalent Inhibitor of Bruton's Tyrosine Kinase with Oral Anti-Inflammatory Activity” (ACS Med Chem Lett, 2021) are Kinact and Ratio values, retold here.

The chains behind the UniProt entries cited, without tags or fusion partners. Where a name states a change or a piece, a line headed by the entry shows the natural chain unless it says otherwise.
UniProt Q06187: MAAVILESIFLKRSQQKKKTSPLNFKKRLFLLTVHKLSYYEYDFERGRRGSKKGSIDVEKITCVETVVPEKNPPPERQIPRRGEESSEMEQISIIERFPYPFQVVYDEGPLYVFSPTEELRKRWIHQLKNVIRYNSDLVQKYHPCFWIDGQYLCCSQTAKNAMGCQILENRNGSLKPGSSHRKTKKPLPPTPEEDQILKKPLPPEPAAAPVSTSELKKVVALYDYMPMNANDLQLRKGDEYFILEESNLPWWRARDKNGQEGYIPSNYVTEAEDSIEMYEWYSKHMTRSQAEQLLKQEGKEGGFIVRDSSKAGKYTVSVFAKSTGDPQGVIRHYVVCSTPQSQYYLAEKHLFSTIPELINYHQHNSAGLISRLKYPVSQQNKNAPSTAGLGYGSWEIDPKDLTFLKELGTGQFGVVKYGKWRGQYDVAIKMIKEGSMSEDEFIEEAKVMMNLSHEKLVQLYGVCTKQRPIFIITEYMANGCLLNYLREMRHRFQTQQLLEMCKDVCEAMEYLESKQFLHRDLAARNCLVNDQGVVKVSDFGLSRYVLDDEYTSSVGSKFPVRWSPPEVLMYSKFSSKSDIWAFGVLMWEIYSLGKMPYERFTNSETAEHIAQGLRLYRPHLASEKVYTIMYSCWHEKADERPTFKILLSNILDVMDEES

Assay [1] deals with T1, Tyrosine-protein kinase BTK (Homo sapiens, UniProt Q06187). The assay is described as follows: Covalent inhibition of recombinant human GST-tagged BTK (2 to 659 end residues) expressed in baculovirus expression system assessed as inactivation constant using NH2-KKKAPFSWYLPEEG as substrate measured every 2 mins for 2 hrs in presence of ATP by microplate reader assay.
Assay [2] concerns the target T1, Tyrosine-protein kinase BTK. The assay is described as follows: Covalent inhibition of recombinant human GST-tagged BTK (2 to 659 end residues) expressed in baculovirus expression system assessed as Kinact/Ki ratio using NH2-KKKAPFSWYLPEEG as substrate measured every 2 mins for 2 hrs in presence of ATP by microplate reader assay.

With `C=CC(=O)N1CCC[C@@H](NC(=O)c2sc3nccc4c3c2NC(=O)N4c2ccc(Oc3ccccc3)cc2Cl)C1`, the Kinact in assay [1] amounted to 0.000376 s⁻¹. Also, in assay [2], the Ratio turned out to be 30600 M⁻¹ s⁻¹.

Take `C=CC(=O)C[C@@H]1CC[C@@H](NC(=O)c2sc3nccc4c3c2NC(=O)N4c2ccc(Oc3ccccc3)cc2C)C1`: the Kinact in assay [1] stood at 0.000337 s⁻¹. Moreover, the Ratio in assay [2] was determined as 28800 M⁻¹ s⁻¹.

For the molecule `C=CC(=O)N1CC[C@H](NC(=O)c2sc3nccc4c3c2NC(=O)N4c2ccc(Oc3ccccc3)cc2C)C1`, the Kinact in assay [1] was determined as 0.000302 s⁻¹. Moreover, the Ratio in assay [2] is 1390 M⁻¹ s⁻¹.

Consider `C=CC(=O)N1CCC[C@@H](NC(=O)c2sc3nccc4c3c2NC(=O)N4c2ccc(Oc3ccccc3)cc2C)C1` (stereo in doubt; 17), for which the Kinact in assay [1] turned out to be 0.00045 s⁻¹. Moreover, in assay [2], the Ratio is 93600 M⁻¹ s⁻¹.

On to `C=CC(=O)NCCNC(=O)c1sc2nccc3c2c1NC(=O)N3c1ccc(Oc2ccccc2)cc1C`, for which the Kinact in assay [1] came to 0.000407 s⁻¹. Further, the Ratio in assay [2] is 7840 M⁻¹ s⁻¹.

Turning to `C=CC(=O)N1CCC[C@@H](NC(=O)c2sc3nccc4c3c2NC(=O)N4c2ccc(Oc3ccccc3)cc2F)C1`, the Kinact in assay [1] came out at 0.000348 s⁻¹. Further, the Ratio in assay [2] was found to be 37800 M⁻¹ s⁻¹.

Regarding `C=CC(=O)N1CCC[C@@H](NC(=O)c2sc3nccc4c3c2NC(=O)N4c2ccc(Oc3ccccc3)cc2C)C1` (stereo in doubt; 16), the Kinact in assay [1] came out at 0.000404 s⁻¹. Further, the Ratio in assay [2] came to 2690 M⁻¹ s⁻¹.

With `C=CC(=O)N1CC[C@@H](NC(=O)c2sc3nccc4c3c2NC(=O)N4c2ccc(Oc3ccccc3)cc2C)C1`, the Kinact in assay [1] turned out to be 0.000346 s⁻¹. For the same molecule, the Ratio in assay [2] worked out at 12000 M⁻¹ s⁻¹.

Consider `C=CC(=O)N1CCC[C@@H](NC(=O)c2sc3nccc4c3c2NC(=O)N4c2ccc(OC(C)C)cc2C)C1`, for which the Kinact in assay [1] was determined as 0.000304 s⁻¹. The Ratio in assay [2] was determined as 902 M⁻¹ s⁻¹.

As for `C=CC(=O)N1CC(NC(=O)c2sc3nccc4c3c2NC(=O)N4c2ccc(Oc3ccccc3)cc2C)C1`, in assay [1], the Kinact stood at 0.000128 s⁻¹. For the same molecule, the Ratio in assay [2] is 908 M⁻¹ s⁻¹.
